Apparent affinities of Ab-95 variants for a coronavirus HR2 peptide

Antigen: PDVDLGDISGINAS, a 14-residue peptide of the SARS-CoV-2 spike HR2 region.

Parent scFv Ab-95: VH joined to VL by the linker GGGGSGGGGSGGGGS. Changes lie in the light chain CDRs alone.
VH: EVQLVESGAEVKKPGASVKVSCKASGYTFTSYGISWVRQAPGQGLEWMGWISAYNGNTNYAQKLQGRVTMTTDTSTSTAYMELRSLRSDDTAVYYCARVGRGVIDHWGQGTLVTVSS
VL: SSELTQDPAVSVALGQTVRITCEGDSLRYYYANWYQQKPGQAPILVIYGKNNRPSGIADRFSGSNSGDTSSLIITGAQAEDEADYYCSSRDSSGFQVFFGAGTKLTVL

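In library AAYL52, one, two or three CDR residues were substituted; doubles and triples were drawn at random. The assay is AlphaSeq: two haploid yeast populations carry antibody and antigen on their surface. The frequency of each diploid, read from paired DNA barcodes, reflects how well the two displayed proteins bind. The ratio of observed to expected reads was calibrated, replicate by replicate, on BCL2-family standards whose Kd was known from biolayer interferometry. Each pool was mated in three replicate cultures.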

The parent's light chain CDRs are EGDSLRYYYAN, GKNNRPS, SSRDSSGFQVF; each variant's own CDRs replace them letter for letter. This list gathers variants with a substitution at S88 (VL, numbered from residue 1). Kd is apparent (estimated from mating counts) and averaged on the log scale over replicates with a signal. Smaller is tighter. A pair that was not seen in any replicate is written "nd"; this usually means weak binding, but a binder can also be missed. In this assay the parent's reference entry averaged 200 nM; its copy inside this library read 180 nM.

The variant EGDSLRYYYAN | GKNNRPS | DSRDVSGFQVF showed 6.3 µM (1 of 3 replicates). The variant EGDSLRYYYAY | GKNNRRS | DSRDSSGFQVF showed 6.5 µM (1 of 3 replicates). For EGDSLRYYYAN | GKNNRPS | VVRYSSGFQVF, the assay gave 1.2 µM (1 of 3 replicates). The variant EGDSLRYYYAN | GFNNRPS | NDRDSSGFQVF showed nd (0 of 3 replicates). For EGRSLRYYYAN | GKNNRPS | YSRDSSGFFVF, the assay gave 2.3 µM (2 of 3 replicates). The variant EGDSLRYYYAN | WKRNRPS | QSRDSSGFQVF showed 2.5 µM (1 of 3 replicates). With EGDSLRYYYAN | GKQNRPS | PSRDSSGFQVF the result was 1.2 µM (3 of 3 replicates). For EGDSLRYYYAG | GKNNRPR | CSRDSSGFQVF, the assay gave nd (0 of 3 replicates).

With EGDSLRVYYAN | HKNNRPS | FSRDSSGFQVF the result was 5.5 µM (1 of 3 replicates). For EGDSLRYYYAN | GTNNRPS | TSRDSSDFQVF, the assay gave nd (0 of 3 replicates). For EGDSLRYYFAN | GKNNRPS | HSRDSSGMQVF, the assay gave 1.1 µM (3 of 3 replicates). The variant EGDSLRYEYAN | GKNNRPS | LSRDSSNFQVF gave 1.1 µM (1 of 3 replicates). The variant EGDSLHYYYAN | GKNNRPS | TSRHSSGFQVF gave 7.8 µM (2 of 3 replicates). The variant EGDSLRYYYAN | GKNNRPS | VLRLSSGFQVF gave nd (0 of 3 replicates). The variant EGDSLRAYYAN | GKNNRPS | GSRRSSGFQVF showed 1.4 µM (3 of 3 replicates). The variant EGDSLRYYYAN | DKWNRPS | NSRDSSGFQVF showed 1.9 µM (2 of 3 replicates).

For EGHSLRYYYAC | GKNNRPS | CSRDSSGFQVF, the assay gave 1.1 µM (3 of 3 replicates). With EGDSLSYYYAN | GKNNRPD | LSRDSSGFQVF the result was nd (0 of 3 replicates). The variant EGDSSRYYYAN | SKNNRPS | WSRDSSGFQVF showed nd (0 of 3 replicates). The variant EGDSLRYYMAN | GKNNRPS | ISRDYSGFQVF showed 15 µM (2 of 3 replicates). The variant EGDSLRYYYAN | GKNNRPS | YSRDISGFQVF showed 28 µM (1 of 3 replicates). With EGASLRYYYAN | GKNNRPS | PSRDSSGFQVF the result was 140 nM (3 of 3 replicates). The variant EGDSLRYYYAN | GKHNRPS | ESRDSSGFQGF showed nd (0 of 3 replicates). With EGDSYRYYYAN | GKNNRPS | YGRDSSGFQVF the result was 5.0 µM (2 of 3 replicates).

The variant EYDSLRYYYAN | GKNNDPS | NSRDSSGFQVF showed 2.6 µM (1 of 3 replicates). The variant EGDSLGYYYAN | GINNRPS | WSRDSSGFQVF gave 61 µM (1 of 3 replicates). The variant EGDSLRYYYAK | GKNNRPK | WSRDSSGFQVF gave 350 µM (2 of 3 replicates). The variant EGDSLRYYYAN | GKNNRPA | ISRDSSGIQVF showed 370 nM (3 of 3 replicates). The variant EGDSPRYYYAN | GKNERPS | NSRDSSGFQVF showed nd (0 of 3 replicates). The variant EGDSLRYYYAN | GQNNRPS | KSQDSSGFQVF showed 59 µM (1 of 3 replicates). For ENDSLRYQYAN | GKNNRPS | ESRDSSGFQVF, the assay gave 2.4 µM (3 of 3 replicates). The variant EGDSLRYYYAN | GDNNRPS | DSRDSSGFQVF showed nd (0 of 3 replicates).

With EGDSLRYYYAN | GKNNRES | FSRDSSGFQVF the result was nd (0 of 3 replicates). For EGDSLRYYYPN | GKNNFPS | VSRDSSGFQVF, the assay gave nd (0 of 3 replicates). For EMDSLRYYYAN | DKNNRPS | LSRDSSGFQVF, the assay gave 14 µM (2 of 3 replicates). For EGDSLRYYYAN | GKNVRPS | VSRDNSGFQVF, the assay gave 250 nM (2 of 3 replicates). The variant EGPSLRYYYAN | GKNNRPS | VSRDSSGFQVF gave 1.3 µM (3 of 3 replicates). The variant EGDSLCYYYAN | GKNNRPS | WSRDSSWFQVF gave 5.8 µM (2 of 3 replicates). The variant EGDSLRYYYAN | GKNNRIS | PIRDSSGFQVF gave nd (0 of 3 replicates). The variant EGDSLDYYYAN | GKNRRPS | HSRDSSGFQVF gave 160 µM (2 of 3 replicates).

Extract of 2 entries:

With EGDSLGYYYAN | GINNRPS | WSRDSSGFQVF the result was 61 µM (1 of 3 replicates).
With EGDSLRYYYAN | GDNNRPS | DSRDSSGFQVF the result was nd (0 of 3 replicates).

Empty control strains, which show no peptide, gave a signal in 28% of pairings with library AAYL52; the median was 8.2 µM and 95% of these signals were weaker than 800 nM. No background was subtracted.

Source: Engelhart et al. 2022 (doi:10.1038/s41597-022-01779-4), MIT Lincoln Laboratory and A-Alpha Bio; data file from the FLAb repository.